{"source": "PubChem BioAssay AID845", "about": "(Columbia University Molecular Screening Center, 2007)", "note": "The list shows a part of the results, in another mix than the full data. Calls of active or inactive are those of the source.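 How the source made its calls: active means cell count reduction more than 3 SD above the screen-wide mean (cut at about 70% in these data); inactive means the rest.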", "data": [{"test": "cytotoxicity in IL-1B stimulated HUVEC, primary screen, cytotoxicity control for IL-1B NFkB translocation project, imaging, Hoechst nuclear count, IL-1B stimulus (AID 845);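 further: normalized per plate to untreated control cells as the no-loss baseline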", "conditions": "HUVEC cell count loss, at 2 µM, hits give high values", "values": [{"smiles": "CC1CCN(C(=O)Oc2c(Cl)cc(Cl)c3cccnc23)CC1", "cell count reduction": "inactive: 6.6%"}, {"smiles": "CC(=O)N1C2C3N(C(C)=O)C1C1N(C(C)=O)C(C(N1C(C)=O)N3C(C)=O)N2C(C)=O", "cell count reduction": "inactive: -13.6%"}, {"smiles": "O=[N+]([O-])c1cccc2n[nH]nc12", "cell count reduction": "inactive: -11.8%"}, {"smiles": "CCc1nc2c(n1)c1c(non1O)c1c2no[n+]1[O-]", "cell count reduction": "inactive: -3.6%"}, {"smiles": "CC(C)CC(=O)NC(Sc1ccc(Cl)cc1)C(Cl)(Cl)Cl", "note": "(configuration not stated)", "cell count reduction": "inactive: 9.3%"}, {"smiles": "Cc1c2non([O-])c-2c(C)[n+](=O)[n+]1[O-]", "cell count reduction": "inactive: -8%"}, {"smiles": "Oc1ccccc1CNc1ccccn1", "cell count reduction": "inactive: -137%"}, {"smiles": "CN1CCCC(OC(=O)C(c2ccccc2)c2ccccc2)C1", "note": "(configuration not stated)", "cell count reduction": "inactive: -15.4%"}, {"smiles": "CCOP(=O)(Nc1ccccc1)OCC", "cell count reduction": "inactive: 10.6%"}, {"smiles": "COC(=O)c1cc2c(s1)N=C(c1ccccc1)N(C)P2(=O)N1CCOCC1", "note": "(configuration not stated)", "cell count reduction": "inactive: -37.6%"}, {"smiles": "CCC(=O)N1C2C3N(C(=O)CC)C1C1N(C(=O)CC)C(C(N1C(=O)CC)N3C(=O)CC)N2C(=O)CC", "cell count reduction": "inactive: -22.7%"}, {"smiles": "CCOC(=O)NC(Sc1ccccc1)C(Cl)(Cl)Cl", "note": "(configuration not stated)", "cell count reduction": "inactive: -19.2%"}, {"smiles": "O=P1(Nc2nc3ccc(Cl)cc3s2)COc2ccccc2O1", "note": "(configuration not stated)", "cell count reduction": "inactive: 12%"}, {"smiles": "c1nnnn1CCn1cnnn1", "cell count reduction": "inactive: -11.4%"}, {"smiles": "O=P(Nc1nccs1)(c1ccccc1)c1ccccc1", "cell count reduction": "inactive: -30.1%"}, {"smiles": "O=C(OC1CN2CCC1CC2)c1cccc(Cl)c1", "note": "(configuration not stated)", "cell count reduction": "inactive: -7.3%"}, {"smiles": "Cc1ccc(OCC(=O)OC2CN3CCC2CC3)cc1", "note": "(configuration not stated)", "cell count reduction": "inactive: -2%"}, {"smiles": "O=P1(Nc2ccc(Br)cn2)COc2ccccc2OC1", "cell count reduction": "inactive: 0%"}, {"smiles": "O=P1(Nc2ncccn2)COc2ccccc2OC1", "cell count reduction": "inactive: 17%"}, {"smiles": "Cc1nn(-c2ccccc2)c2c1P(=O)(N1CCOCC1)N(C)C(c1ccccc1)=N2", "note": "(configuration not stated)", "cell count reduction": "inactive: -5.7%"}, {"smiles": "CC1(CBr)Cn2c(nc3ccccc3c2=O)S1", "note": "(configuration not stated)", "cell count reduction": "inactive: 24.5%"}, {"smiles": "Clc1n[nH]nc1-c1nn[nH][15n]1", "cell count reduction": "inactive: 5.6%"}, {"smiles": "O=P1(Nc2ccccn2)COc2ccccc2OC1", "cell count reduction": "inactive: -26.7%"}, {"smiles": "Cc1cccc(OCC(=O)OC2CN3CCC2CC3)c1", "note": "(configuration not stated)", "cell count reduction": "inactive: -12.3%"}, {"smiles": "O=[N+]([O-])c1ccc2c(c1)nnn2O", "cell count reduction": "inactive: 8.9%"}, {"smiles": "CCOP1(=S)c2c(C)nn(CCC#N)c2N=C(c2ccc(F)cc2)N1C", "note": "(configuration not stated)", "cell count reduction": "inactive: 5.2%"}, {"smiles": "CCOP1(=S)c2c(C)nn(CCC#N)c2N=C(c2ccccc2F)N1C", "note": "(configuration not stated)", "cell count reduction": "inactive: 0%"}, {"smiles": "CCN(CC)C(=S)SC(NC=O)C(Cl)(Cl)Cl", "note": "(configuration not stated)", "cell count reduction": "inactive: -8.8%"}, {"smiles": "O=C(OC1CN2CCC1CC2)C12CC3CC(CC(C3)C1)C2", "note": "(configuration not stated)", "cell count reduction": "inactive: 5.2%"}, {"smiles": "CCC(C)N(CC(C)C)C(=S)SC(NC(C)=O)C(Cl)(Cl)Cl", "note": "(configuration not stated)", "cell count reduction": "inactive: -58.8%"}, {"smiles": "O=C(COc1ccccc1)OC1CN2CCC1CC2", "note": "(configuration not stated)", "cell count reduction": "inactive: 5.8%"}, {"smiles": "COP1(=S)c2c(C)nn(CCC#N)c2N=C(c2ccc(F)cc2)N1C", "note": "(configuration not stated)", "cell count reduction": "inactive: -20%"}]}]}
